# Like-named read-outs stand apart in the source and are kept apart here.
# The chains behind the UniProt entries cited, without tags or fusion partners.
# UniProt P22001, whole entry: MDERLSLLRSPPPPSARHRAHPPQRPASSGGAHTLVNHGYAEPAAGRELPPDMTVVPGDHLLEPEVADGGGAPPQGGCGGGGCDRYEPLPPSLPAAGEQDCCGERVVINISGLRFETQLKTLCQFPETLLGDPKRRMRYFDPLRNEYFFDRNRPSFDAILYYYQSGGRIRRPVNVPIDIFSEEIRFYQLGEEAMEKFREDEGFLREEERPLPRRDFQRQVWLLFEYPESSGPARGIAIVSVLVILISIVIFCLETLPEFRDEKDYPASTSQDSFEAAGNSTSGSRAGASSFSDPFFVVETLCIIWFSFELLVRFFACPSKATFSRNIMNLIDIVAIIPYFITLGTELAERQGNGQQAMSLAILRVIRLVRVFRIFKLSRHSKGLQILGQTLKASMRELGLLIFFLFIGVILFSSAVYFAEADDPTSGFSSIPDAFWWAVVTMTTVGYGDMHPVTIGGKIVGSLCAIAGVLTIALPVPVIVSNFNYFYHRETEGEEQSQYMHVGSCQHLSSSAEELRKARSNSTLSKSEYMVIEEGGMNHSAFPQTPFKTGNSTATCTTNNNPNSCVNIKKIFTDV
# UniProt P16389, whole entry: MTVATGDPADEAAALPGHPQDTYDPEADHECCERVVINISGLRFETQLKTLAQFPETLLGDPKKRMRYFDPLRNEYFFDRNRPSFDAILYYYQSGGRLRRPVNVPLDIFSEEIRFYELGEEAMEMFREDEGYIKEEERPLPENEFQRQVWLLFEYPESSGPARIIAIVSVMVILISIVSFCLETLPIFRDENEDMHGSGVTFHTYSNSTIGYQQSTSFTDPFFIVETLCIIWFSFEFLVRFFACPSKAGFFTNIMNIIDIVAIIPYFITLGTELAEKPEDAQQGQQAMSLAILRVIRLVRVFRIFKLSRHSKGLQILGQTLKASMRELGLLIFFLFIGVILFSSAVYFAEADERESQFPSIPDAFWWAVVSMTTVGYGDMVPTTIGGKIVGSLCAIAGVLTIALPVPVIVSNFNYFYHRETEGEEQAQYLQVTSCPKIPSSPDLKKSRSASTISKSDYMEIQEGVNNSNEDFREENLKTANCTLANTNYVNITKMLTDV
# Tests used:
# Kv1.3 channels [1] = biological target: T1, Kv1.3 channels (Homo sapiens, UniProt P22001); assay: Whole-cell patch-clamp block of Kv1.3 currents in activated human peripheral T lymphocytes; format: cell-based
# T1 construct: endogenous in cells
# Kv1.3 channels [2] = assay: as above; format: cell-based
# hKv1.2 = biological target: T2, hKv1.2 (Homo sapiens, UniProt P16389); assay: Whole-cell patch-clamp block of hKv1.2 expressed in Cos-7 cells; format: cell-based
# T2 construct: expressed in transfected cells; host or cells: Cos-7 cells, co-transfected with a separate GFP plasmid
# DTH = settings: rats; Varga Z. et al. (2012); cited from earlier work
smiles,measurement,setting,value
"CSCC[C@@H]1NC(=O)[C@@H]2CSSC[C@H](NC(=O)[C@H](CCC(=O)O)NC(=O)[C@H](CCCCN)NC(=O)[C@@H]3CCC(=O)N3)C(=O)N[C@@H]([C@@H](C)O)C(=O)NCC(=O)N3CCC[C@H]3C(=O)N[C@@H](CCC(N)=O)C(=O)N[C@@H](Cc3c[nH]cn3)C(=O)N[C@H]3CSSC[C@H](NC(=O)[C@H](CCCCN)NC(=O)[C@H](CCCNC(=N)N)NC(=O)[C@H](CC(N)=O)NC1=O)C(=O)N[C@@H](CCCCN)C(=O)N[C@H]1CSSC[C@H](NC(=O)[C@H](Cc4ccccc4)NC(=O)[C@H](CC(N)=O)NC(=O)[C@H]([C@@H](C)O)NC3=O)C(=O)N[C@@H](CCCNC(=N)N)C(=O)N[C@@H](CC(=O)O)C(=O)N[C@@H](C)C(=O)N[C@@H](CCCCN)C(=O)N[C@@H](CSSC[C@@H](C(=O)N[C@@H](CCCCN)C(=O)O)NC(=O)[C@H](CC(N)=O)NC(=O)[C@H](Cc3ccc(O)cc3)NC1=O)C(=O)N[C@@H]([C@@H](C)O)C(=O)N[C@@H](Cc1c[nH]cn1)C(=O)NCC(=O)N[C@@H](CCCCN)C(=O)N2 [(K16D, N17A, F32Y)]",Kd,Kv1.3 channels [1],1.4 nM
same,selectivity ratio SR=Kd[1.2]/Kd[1.3],Kv1.3 channels [2],17
same,Kd,"hKv1.2; Hill fit of remaining current fraction, read-out: Kd for Kv1.2",23.5 nM
"CSCC[C@@H]1NC(=O)[C@@H]2CSSC[C@H](NC(=O)[C@H](CCC(=O)O)NC(=O)[C@H](CCCCN)NC(=O)[C@@H]3CCC(=O)N3)C(=O)N[C@@H]([C@@H](C)O)C(=O)NCC(=O)N3CCC[C@H]3C(=O)N[C@@H](CCC(N)=O)C(=O)N[C@@H](Cc3c[nH]cn3)C(=O)N[C@H]3CSSC[C@H](NC(=O)[C@H](CCCCN)NC(=O)[C@H](CCCNC(=N)N)NC(=O)[C@H](CC(N)=O)NC1=O)C(=O)N[C@@H](CCCCN)C(=O)N[C@H]1CSSC[C@H](NC(=O)[C@H](Cc4ccccc4)NC(=O)[C@H](CC(N)=O)NC(=O)[C@H]([C@@H](C)O)NC3=O)C(=O)N[C@@H](CCCNC(=N)N)C(=O)N[C@@H](CCCCN)C(=O)N[C@@H](CC(N)=O)C(=O)N[C@@H](CCCCN)C(=O)N[C@@H](CSSC[C@@H](C(=O)N[C@@H](CCCCN)C(=O)O)NC(=O)[C@H](CC(N)=O)NC(=O)[C@H](Cc3ccccc3)NC1=O)C(=O)N[C@@H]([C@@H](C)O)C(=O)N[C@@H](Cc1c[nH]cn1)C(=O)NCC(=O)N[C@@H](CCCCN)C(=O)N2 [sWT, Anuroctoxin, reference compound]",Kd,Kv1.3 channels [1],0.3 nM
same,Kd,hKv1.2,5.3 nM
same,inhibition of DTH,DTH,inhibit DTH
"CSCC[C@@H]1NC(=O)[C@@H]2CSSC[C@H](NC(=O)[C@H](CCC(=O)O)NC(=O)[C@H](CCCCN)NC(=O)[C@@H]3CCC(=O)N3)C(=O)N[C@@H]([C@@H](C)O)C(=O)NCC(=O)N3CCC[C@H]3C(=O)N[C@@H](CCC(N)=O)C(=O)N[C@@H](Cc3c[nH]cn3)C(=O)N[C@H]3CSSC[C@H](NC(=O)[C@H](CCCCN)NC(=O)[C@H](CCCNC(=N)N)NC(=O)[C@H](CC(N)=O)NC1=O)C(=O)N[C@@H](CCCCN)C(=O)N[C@H]1CSSC[C@H](NC(=O)[C@H](Cc4ccccc4)NC(=O)[C@H](CC(N)=O)NC(=O)[C@H]([C@@H](C)O)NC3=O)C(=O)N[C@@H](CCCNC(=N)N)C(=O)N[C@@H](CCCCN)C(=O)N[C@@H](C)C(=O)N[C@@H](CCCCN)C(=O)N[C@@H](CSSC[C@@H](C(=O)N[C@@H](CCCCN)C(=O)O)NC(=O)[C@H](CC(N)=O)NC(=O)[C@H]([C@@H](C)O)NC1=O)C(=O)N[C@@H]([C@@H](C)O)C(=O)N[C@@H](Cc1c[nH]cn1)C(=O)NCC(=O)N[C@@H](CCCCN)C(=O)N2 [(N17A, F32T)]",Kd,Kv1.3 channels [1],0.63 nM
same,increase of affinity for Kv1.3 compared to F32T alone,Kv1.3 channels [1]; compared to F32T,12 fold
same,selectivity for Kv1.3 over Kv1.2,"Kv1.3 channels [2]; ratio of Kd,Kv1.2 and Kd,Kv1.3",2400 fold
same,improvement of affinity for Kv1.2 compared to F32T alone,hKv1.2; compared to F32T,5 fold
CSCC[C@@H]1NC(=O)[C@@H]2CSSC[C@H](NC(=O)[C@H](CCC(=O)O)NC(=O)[C@H](CCCCN)NC(=O)[C@@H]3CCC(=O)N3)C(=O)N[C@@H]([C@@H](C)O)C(=O)NCC(=O)N3CCC[C@H]3C(=O)N[C@@H](CCC(N)=O)C(=O)N[C@@H](Cc3c[nH]cn3)C(=O)N[C@H]3CSSC[C@H](NC(=O)[C@H](CCCCN)NC(=O)[C@H](CCCNC(=N)N)NC(=O)[C@H](CC(N)=O)NC1=O)C(=O)N[C@@H](CCCCN)C(=O)N[C@H]1CSSC[C@H](NC(=O)[C@H](Cc4ccccc4)NC(=O)[C@H](CC(N)=O)NC(=O)[C@H]([C@@H](C)O)NC3=O)C(=O)N[C@@H](CCCNC(=N)N)C(=O)N[C@@H](CCCCN)C(=O)N[C@@H](CC(N)=O)C(=O)N[C@@H](CCCCN)C(=O)N[C@@H](CSSC[C@@H](C(=O)N[C@@H](CCCCN)C(=O)O)NC(=O)[C@H](CC(N)=O)NC(=O)[C@H]([C@@H](C)O)NC1=O)C(=O)N[C@@H]([C@@H](C)O)C(=O)N[C@@H](Cc1c[nH]cn1)C(=O)NCC(=O)N[C@@H](CCCCN)C(=O)N2 [F32T],Kd,Kv1.3 channels [1],7.5 nM
same,reduction of toxin affinity for Kv1.3 compared to the sWT toxin,Kv1.3 channels [1]; compared to sWT,about 26 fold
same,block of Kv1.2,hKv1.2; at 100 nM concentration,very small amount of block
same,estimated increase in Kd for Kv1.2,"hKv1.2; compared to sWT, estimated from block at 100 nM",about 1000 fold
